Literature values in publication PMC2361661, “A phase I pharmacokinetic and pharmacodynamic study of BGC9331 and carboplatin in relapsed gynaecological malignancies” (British Journal of Cancer, 2005).

Test system: human ovarian tumour cell lines
Conditions: ref Jackman et al, 2002; cited from earlier work

C#CCN(Cc1cc2c(=O)[nH]c(C)nc2cc1C)c1ccc(C(=O)N[C@@H](CCc2nnn[nH]2)C(=O)O)c(F)c1 [BGC9331]
cross-resistance to platinum-based agents: non crossresistance
